The values below are quoted from earlier work in patent US11826435B2, “Conduritol aziridine derivatives and uses thereof” (University of Saskatchewan, priority 2017, dated 2023).

Chains of the proteins cited; added tags and fusions are not shown. Residues count along the entry.
UniProt P04062, 40-536: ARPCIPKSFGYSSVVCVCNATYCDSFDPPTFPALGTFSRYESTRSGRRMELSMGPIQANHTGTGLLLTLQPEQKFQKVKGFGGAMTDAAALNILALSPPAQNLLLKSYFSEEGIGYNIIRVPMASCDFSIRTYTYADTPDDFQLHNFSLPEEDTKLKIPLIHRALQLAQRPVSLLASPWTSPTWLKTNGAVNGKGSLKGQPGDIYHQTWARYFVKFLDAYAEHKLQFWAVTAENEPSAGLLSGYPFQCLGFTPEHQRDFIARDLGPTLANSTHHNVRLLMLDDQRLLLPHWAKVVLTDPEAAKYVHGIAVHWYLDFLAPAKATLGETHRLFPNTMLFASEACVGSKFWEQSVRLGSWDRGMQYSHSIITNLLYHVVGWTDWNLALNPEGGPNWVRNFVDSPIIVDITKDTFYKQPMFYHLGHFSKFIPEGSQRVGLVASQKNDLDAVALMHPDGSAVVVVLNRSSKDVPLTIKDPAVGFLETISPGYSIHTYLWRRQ

In the data set the target is GCase (Homo sapiens (Human), UniProt P04062). The settings on record: inhibition of GCase, reported data; cited from earlier work.

For orientation: Ki means a dissociation constant, usually derived from enzyme kinetics or from competition with a known ligand. With “N-octyl conduritol aziridine [Compound 1.7]”, the inhibition constant Ki is 5 nM.
